Measured values from patent US7282522B2, “Hydroxamic acid derivatives and the method for preparing thereof” (Amorepacific Corporation, priority 2003, dated 2007).

By UniProt entry, the sequences of proteins in these tests, tags left out.
UniProt P13631, whole entry, species assumed: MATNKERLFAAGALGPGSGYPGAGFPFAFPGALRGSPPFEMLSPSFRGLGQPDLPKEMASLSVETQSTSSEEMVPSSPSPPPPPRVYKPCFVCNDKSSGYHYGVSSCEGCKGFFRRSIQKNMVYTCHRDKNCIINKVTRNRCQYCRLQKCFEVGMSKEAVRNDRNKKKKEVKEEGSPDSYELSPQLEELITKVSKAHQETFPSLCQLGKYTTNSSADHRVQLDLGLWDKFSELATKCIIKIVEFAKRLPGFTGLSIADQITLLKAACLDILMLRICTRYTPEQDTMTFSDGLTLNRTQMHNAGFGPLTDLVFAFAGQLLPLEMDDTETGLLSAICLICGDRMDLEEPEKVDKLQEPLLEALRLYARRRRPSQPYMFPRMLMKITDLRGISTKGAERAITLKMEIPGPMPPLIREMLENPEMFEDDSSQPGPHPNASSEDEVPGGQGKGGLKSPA

Experiments:
rabbits = assay: Primary skin irritation test on animals (Draize P.I.I.); settings: depilated back
procollagen type I = assay: Effect on collagen biosynthesis (procollagen type I ELISA) in human fibroblasts; format: cell-based; settings: 10^−4M, 24 hours, serum-free medium, relative to control group = 100
Protocol: Human fibroblasts were seeded into 24-well plate at 1×10^5 cells per well and then cultured to 90% of growth.
For each supernatant, procollagen production was measured with procollagen type I ELISA kit.

elastase = assay: Inhibition of elastase expression in human fibroblasts (ELISA kit); format: cell-based; settings: 10^−4M, 24 hours, serum-free medium, relative to control group = 100
Protocol: For each culture fluid, elastase production was measured with elastase kit (commercialized by AmershamPharmacia Biotech). Firstly, the culture fluid was added to 96-well plate spread with primary elastase antibody and then antigen-antibody reaction was performed in an incubator for 3 hours. Later, chromophore-conjugated secondary antibody was added to the 96-well plate and then reacted for 15 minutes. Then, color former was added thereto, to induce development at room temperature for 15 minutes. 1M of sulfuric acid was added to stop the reaction. […] The color density depends on the progress of the reaction. The absorbance of the yellow 96-well plate was measured at 405 nm using absorptiometer. Elastase expression was calculated by the following equation 2. Herein, the absorbance of the culture fluid collected from the medium with no material treated was used as a control. Elastase expression (%)=(Absorbance of test group with said material treated/Absorbance of control group with no material treated)×100 [Equation 2]
Elastase expression was evaluated as a relative value, in consideration that the value of control group with no material treated is 100.

RARγ = molecular target: T1, RARγ (Homo sapiens, UniProt P13631); assay: RARE-luciferase reporter assay in transfected CV-1 cells (affinity to retinoic acid receptor), RARγ; format: cell-based; settings: treated 24 hours at final concentration 10^−4M, control group 5000
T1 construct: expressed in transfected cells; host or cells: CV-1 cells (ATCC)
From the text: This example illustrates affinities of hydroxamic acid derivatives obtained in Examples 1 to 55 to retinoic acid receptor, in comparison with retinol and retinoic acid.
Receptor-expression plasmid, pECE-RARα and pECE-RARγ were engineered by the prior method (Mol. Cell. Biol. 1996, 16, 1138-1149). RARE-tk-Luc, i.e. RARE reporter was obtained by inserting RARE fragment from b-RARE-tk-CAT into pGL3 luciferase basic vector. CV-1 cells were obtained from ATCC (American Type Culture Collection).
CV-1 cells were seeded into 96-well microtiter plate at 5,000 cells per well and cultured in DMEM (Dulbecco's Modified Eagle's Media) supplemented with 2.5% fetal bovine serum. 24 Hours later, the cells were transfected with 10 ng of pECE-RARα, long of pECE-RARγ, 100 ng of reporter plasmid and 100 ng of β-galactosidase-expression vector, using LipofectaminPlus (GIBCO BRL, grand island, N.Y.). 24 Hours post-transfection, the cells were treated for 24 hours with hydroxamic acid derivatives of Examples 1˜55 or retinol at a final concentration of 10^−4M or with retinoic acid at a final concentration of 10^−5M, which is 10 times lower concentration than those of the former.

white guinea pigs = assay: Phototoxicity test (UVA irradiation); settings: 50 μl of 1%(w/v) solution, UVA 320~380 nm 15 J/cm^2, observed 24, 48 and 72 hours
collagenase = assay: Inhibition of collagenase expression in human fibroblasts (ELISA kit); format: cell-based; settings: 10^−4M, 24 hours, serum-free medium, relative to control group = 100
Protocol: Human fibroblasts were seeded into 96-well microtiter plate at 5,000 cells per well and then cultured to 90% of growth in DMEM (Dulbecco's Modified Eagle's Media) supplemented with 2.5% fetal bovine serum. Then, the fibroblastes were cultured in serum-free DMEM for 24 hours and treated for 24 hours with 10^−4M of hydroxamic acid derivatives of Examples 1˜55, retinol or retinoic acid in serum-free medium, and then the culture fluid was collected.
For each culture fluid, collagenase production was measured with collagenase kit (commercialized by AmershamPharmacia Biotech). Firstly, the culture fluid was added to 96-well plate spread with primary collagenase antibody and then antigen-antibody reaction was performed in an incubator for 3 hours. […] The absorbance of the yellow 96-well plate was measured at 405 nm using absorptiometer. Collagenase expression was calculated by the following equation 1. Herein, the absorbance of the culture fluid collected from the medium with no material treated was used as a control. Collagenase expression (%)=(Absorbance of test group with said material treated/Absorbance of control group with no material treated)×100 [Equation 1]
Collagenase expression was evaluated as a relative value, in consideration that the value of control group with no material treated is 100.

Compound: CN(O)C(=O)c1ccc(C(=O)NC23CC4CC(CC(C4)C2)C3)cc1 [Example 44, N-adamantyl [4-(N-hydroxy-N-methylcarbamoyl)phenyl]carboxyamide]
- P.I.I. (Primary Irritation Index) (rabbits; 0.5 ml of 1% solution in 1,3-butylene glycol:ethanol 7:3, observed 24 or 72 hours later): 0.678
- Evaluation (skin irritation) (rabbits; 1% solution, according to Draize's P.I.I.): No irritation
- Collagen biosynthesis (%) (procollagen type I): 107%
- Elastase expression (%) (elastase): 63%
- Luciferase activity RARγ (RARγ): 10700
- Phototoxic index (white guinea pigs): 0
- Collagenase expression (%) (collagenase): 83%
